Source: patent publication US7662853B2, “Monoacetyldiacylglycerol derivative for the treatment of sepsis” (priority 2004, dated 2010)

Legend:
T-cells = test: T-cell proliferation (3H-thymidine incorporation, SI); type: cell-based, C57BL/6 mice; settings: 7th day
Source text: Splenocytes were collected from C57BL/6 mice (provided from Asan Institute for Life Sciences Animal Lab., Seoul, Korea) spleens. Then, single cell suspensions were obtained by repeated aspiration and flushing. Red blood cells were removed using ammonium chloride and then passed through nylon wool to remove debris and clumps. T-cells were purified using magnetic bead (MACS bead, Miltenyi Biotec, bergich gladbach, Germany) containing anti-goat IgG MACS bead, Miltenyi Biotec, bergich gladbach, Germany) or anti-mouse CD4 (MACS bead, Miltenyi Biotec, bergich gladbach, Germany) or anti-mouse CD8 antibody (MACS bead, Miltenyi Biotec, bergich gladbach, Germany) (Turner and Dockrell (1996) Immunology, 87: 339-342).
T cell suspensions were suspended in Isocove's modified Dulbecco's medium (IMDM, Gibco, Grand Island, N.Y.) supplemented with 10% fetal bovine serum (referred as ‘FBS’ hereinafter) (Gibco, Grand Island, N.Y.). 5×10^4 viable cells per well were cultured in 96-well plates, with 1 μg/ml, of Compound 1, Compound 2, Compound 4 and Compound 5, 0.01, 0.1, 1 μg/ml of Compound 3 (synthesized and provided by Department of Chemistry, Ewha Womans University, Seoul, Korea) or 20 ng/ml of IL-2. […] On the 7th day, the cells were harvested and the […] (referred as ‘SI’ hereinafter) was calculated by the following Mathematical Formula 1. […]

[1] = tested on: T-cells from peripheral blood of AIDS patients; test: T cell proliferation assay, AIDS patients; type: cell-based, human
Experimental: The following experiment was performed to confirm the effect of Compound 3 against immunocytes of the AIDS patients. First, Human mononuclear cells were obtained by Hisopaque 1077 from peripheral blood of AIDS patients. Red blood cells were removed using ammonium chloride and then passed through nylon wool to remove debris and clumps. T-cells were purified using magnetic bead (anti-human CD3) (MACS bead, Miltenyi Biotec, bergich gladbach, Germany). T cell suspensions were suspended in Isocove's modified Dulbecco's medium (IMDM, Gibco, Grand Island, N.Y.) supplemented with 10% fetal bovine serum (referred as ‘FBS’ hereinafter) (Gibco, Grand Island, N.Y.). 5×10^4 viable cells per well (in triplicate) were cultured in 96-well plates, with 0.01, 0.1, 1 μg/ml concentrations of Compound 3 or IL-2 (20 ng/ml). On the 6th day, cells were incubated with 1 μCi ^3H-thymidine/well for 24 hours. On the 7th day, the cells were harvested and the incorporation of ^3H-thymidine was measured. The SI (Stimulation Index) was calculated by the above mentioned formula 1.

Compound | SI (T-cells; 1 μg/ml, CPM in sample/CPM in control) | SI (T-cells; 20 ng/ml) | Stimulation Index (SI) ([1]; AIDS patient 1, 20 ng/ml) | Stimulation Index (SI) ([1]; AIDS patient 2, 20 ng/ml) | Stimulation Index (SI) ([1]; AIDS patient 3, 20 ng/ml) | Stimulation Index (SI) ([1]; AIDS patient 4, 20 ng/ml)
CCCCC/C=C\C/C=C\CCCCCCCC(=O)OC(COC(C)=O)COC(=O)CCCCCCCCCCCCCCC (stereo not drawn) [Compound 3] | 2.05 ± 0.64 |  |  |  |  | 
IL-2: IL-2, a kind of cytokines, used at 20 ng/ml as comparison |  | 2.05 ± 0.24 | 1.41 | 4.17 | 1.29 | 6.54
